From patent publication US20110294728A1, “Antiviral Polypeptides” (priority 2008, published 2011)

Details: 200 μg, 6 hrs after injection

Substance: polyinosinic:polycytidylic acid [Poly I:C]
- increase of the level of cytokines: 10 fold
